Parent scFvs against a spike HR2 peptide, AlphaSeq assay 1

Source: Engelhart et al. 2022 (doi:10.1038/s41597-022-01779-4), MIT Lincoln Laboratory and A-Alpha Bio; data file from the FLAb repository.

The target is the same throughout: PDVDLGDISGINAS, from the HR2 region of SARS-CoV-2 spike.

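The three antibodies came from panning a naive human phage display library on the peptide; each was carried in both assays of the study as a common reference. Ab-14 and Ab-95 are built VH, linker, VL, and Ab-91 VL, linker, VH. Affinity was read by AlphaSeq, a pooled yeast mating assay with surface-displayed partners. After mating in shaken culture at 30 °C for 16 h, diploids were selected and their barcode pairs sequenced. Read counts were normalised to the haploid input and turned into Kd by a linear fit to BCL2-family pairs of known affinity, for each replicate. Mating was done three times.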

Values are log10 of the apparent Kd in nM; lower means stronger binding.
"n.d." marks a missing value. The strain was present, yet no cells mated with the target were sequenced in that replicate, which points to weak or no binding.
Entries in the file, in the order shown: MIT_95_HL_scFV; MIT_91_LH_scFV; AAYL49_29236, AAYL50_1, MIT_14_HL_scFV. Names that start with MIT are the reference entries, the others are copies inside a library.
Where one sequence has several entries in the source, the replicates are listed entry by entry, parted by semicolons.
Nonspecific signal, from three strains lacking the peptide, appeared in 17% of pairings of all scFvs of this assay, centred on 4.13 (5% of these signals below 2.91); values are not corrected for it. The control count says in how many pairings with the empty strains this scFv gave a signal, with their mean in brackets.

| # | antibody | scFv | log10 Kd (nM) by replicate | signal with controls |
|---|---|---|---|---|
| 1 | Ab-95 | EVQLVESGAEVKKPGASVKVSCKASGYTFTSYGISWVRQAPGQGLEWMGWISAYNGNTNYAQKLQGRVTMTTDTSTSTAYMELRSLRSDDTAVYYCARVGRGVIDHWGQGTLVTVSSGGGGSGGGGSGGGGSSSELTQDPAVSVALGQTVRITCEGDSLRYYYANWYQQKPGQAPILVIYGKNNRPSGIADRFSGSNSGDTSSLIITGAQAEDEADYYCSSRDSSGFQVFFGAGTKLTVL | 1.32 / 1.17 / 1.42 | 2/9 (4.26) |
| 2 | Ab-91 | QAVLTQPSSLSASPGASVSLTCTLRSGINVGTYRIYWYQQKPGSPPQYLLRYKSDSDKQQGSGVPSRFSGSKDASANAGILLISGLQSEDEADYYCMIWHSSAWVFGGGTKLTVLGGGGSGGGGSGGGGSEVQLVESGGGLVQPGRSLRLSCAASGFTFDDYAMHWVRQAPGKGLEWVSGISWNSGSIGYADSVKGRFTISRDNAENSLYLQMNSLRAEDTALYYCAKVGRGGGYFDYWGQGTLVTVSS | 1.18 / 1.24 / 1.26 | 2/9 (4.68) |
| 3 | Ab-14 | EVQLVETGGGLVQPGGSLRLSCAASGFTLNSYGISWVRQAPGKGPEWVSVIYSDGRRTFYGDSVKGRFTISRDTSTNTVYLQMNSLRVEDTAVYYCAKGRAAGTFDSWGQGTLVTVSSGGGGSGGGGSGGGGSDVVMTQSPESLAVSLGERATISCKSSQSVLYESRNKNSVAWYQQKAGQPPKLLIYWASTRESGVPDRFSGSGSGTDFTLTISSLQAEDAAVYYCQQYHRLPLSFGGGTKVEIK | 4.11 / n.d. / n.d.; 1.69 / 1.66 / 1.70; 0.56 / 0.81 / 0.57 | 11/27 (4.67) |